The source of these data is US12125561B2, “Determination of JAK-STAT3 pathway activity using unique combination of target genes” (InnoSIGN B.V., priority 2017, dated 2024).

For experiment [1], the system named is JAK-STAT3 cellular signaling pathway in Sez-4 cell line (cutaneous T-cell lymphoma). Nature of the experiment: JAK-STAT3 pathway activity prediction, blood model, data set GSE8685. The experiment is classed as cell-based. The following applies: cells starved of IL-2 for 16 hours, then IL-2 (200 U) resp. IL-15 (20 ng/mL); FIG. 16. Here is the method:
A Sez-4 cell line which was derived from a cutaneous T-cell lymphoma (data set GSE8685). The cells starved of IL-2 for 16 hours (group 1), followed by addition of IL-2 (200 U) resp. IL-15 (20 ng/mL). […] The JAK-STAT3 blood model correctly predicts that JAK-STAT3 is active in the cells that were treated with IL-2 (group 2) and IL-15 (group 3) compared to the control group (group 1).

Experiment [2] shares this test system. Nature of the experiment: JAK-STAT3 pathway activity, blood Bayesian network model, calibration on data set GSE8687. Type of experiment: cell-based. The settings on record: calibration samples; cells starved of IL-2 inactive; FIG. 10. An excerpt: A further selection of the evidence curated list of target genes (listed in Table 2) was made by the inventors. The target genes of the evidence curated list that were proven to be more probative in determining the activity of the JAK-STAT3 signaling pathway from the training samples were selected. Herein, available expression data sets of EGFR mutant cells of lung cancer from data set GSE57156 were used. […] Regarding the JAK-STAT3 blood model, a Sez-4 cell line, which was derived from a cutaneous T-cell lymphoma in data set GSE8687, was adopted to select the target genes shortlist.
Herein, we have used publically available mRNA expression data from Affymetrix U133Plus2.0 on two data sets from the GEO database. Because the STAT3 pathway activation of solid cancer cells and blood cells has slightly different effects on the target gene expression levels, two different calibration data sets were used, representative for STAT3 activation in solid cancer cell and blood cell. One data set has EGFR mutant cells from non-small cell lung cancers.
The training group included 3 samples with cells cultured with IL-2, which were STAT3 active. The model was tested on other samples treated with pan-Jak inhibitor (group 3) and Jak3 inhibitor (group 4).

With “IL-2: cytokine with which Sez-4 cells were cultured”, the “predicted JAK-STAT3 pathway status compared to the control group” value in experiment [1] is given as “active”. Also, in experiment [2], the “JAK-STAT3 pathway status of cultured cells (odds that the TF element is present)” value is given as “STAT3 active”.
